This test addresses GCN2 (Homo sapiens, UniProt Q9P2K8). The test is described as follows: GCN2 enzymatic endpoint assay: phosphorylation of GFP-eIF2α measured by TR-FRET (Lanthascreen). The following applies: read-out: GCN2 activity, GCN2 biochemical IC50, 4 nM GCN2, 2 μM ATP, 80 nM GFP-eIF2α, 90 min RT. The protocol:
The Enzymatic assay was run as an endpoint assay to quantify the activity of the serine/threonine GCN2 kinase by way of measuring phosphorylation of its natural substrate, eiF2α.
The enzymatic reaction was initiated by incubating with 2 μM ATP and 80 nM of GFP labeled eiF2a substrate at room temperature and then stopped after 90 minutes with EDTA. The amount of phosphorylated eIF2α is determined by TR-FRET (Lanthascreen). A terbium labeled antibody associates with the phosphorylated substrate resulting in an increased TR-FRET value. Activity was calculated as the ratio of the acceptor (fluorescein) signal at 520 nm wavelength to the donor (terbium) signal 495 nm. The amount of antibody that is bound to the tracer is directly proportional to the amount of phosphorylated substrate present, and in this manner, kinase activity can be detected and measured by an increase in the TR-FRET value.
Compound addition by D300
5 μL enzyme solution in assay buffer
5 μL substrate/ATP mixture in assay buffer
5 μL stop/detection mix in antibody dilution buffer
(In general: In TR-FRET formats the signal depends on donor and acceptor labels being close together.)

Protein sequences, listed by entry. Tags and fused reporters are not part of them.
UniProt Q9P2K8, whole entry: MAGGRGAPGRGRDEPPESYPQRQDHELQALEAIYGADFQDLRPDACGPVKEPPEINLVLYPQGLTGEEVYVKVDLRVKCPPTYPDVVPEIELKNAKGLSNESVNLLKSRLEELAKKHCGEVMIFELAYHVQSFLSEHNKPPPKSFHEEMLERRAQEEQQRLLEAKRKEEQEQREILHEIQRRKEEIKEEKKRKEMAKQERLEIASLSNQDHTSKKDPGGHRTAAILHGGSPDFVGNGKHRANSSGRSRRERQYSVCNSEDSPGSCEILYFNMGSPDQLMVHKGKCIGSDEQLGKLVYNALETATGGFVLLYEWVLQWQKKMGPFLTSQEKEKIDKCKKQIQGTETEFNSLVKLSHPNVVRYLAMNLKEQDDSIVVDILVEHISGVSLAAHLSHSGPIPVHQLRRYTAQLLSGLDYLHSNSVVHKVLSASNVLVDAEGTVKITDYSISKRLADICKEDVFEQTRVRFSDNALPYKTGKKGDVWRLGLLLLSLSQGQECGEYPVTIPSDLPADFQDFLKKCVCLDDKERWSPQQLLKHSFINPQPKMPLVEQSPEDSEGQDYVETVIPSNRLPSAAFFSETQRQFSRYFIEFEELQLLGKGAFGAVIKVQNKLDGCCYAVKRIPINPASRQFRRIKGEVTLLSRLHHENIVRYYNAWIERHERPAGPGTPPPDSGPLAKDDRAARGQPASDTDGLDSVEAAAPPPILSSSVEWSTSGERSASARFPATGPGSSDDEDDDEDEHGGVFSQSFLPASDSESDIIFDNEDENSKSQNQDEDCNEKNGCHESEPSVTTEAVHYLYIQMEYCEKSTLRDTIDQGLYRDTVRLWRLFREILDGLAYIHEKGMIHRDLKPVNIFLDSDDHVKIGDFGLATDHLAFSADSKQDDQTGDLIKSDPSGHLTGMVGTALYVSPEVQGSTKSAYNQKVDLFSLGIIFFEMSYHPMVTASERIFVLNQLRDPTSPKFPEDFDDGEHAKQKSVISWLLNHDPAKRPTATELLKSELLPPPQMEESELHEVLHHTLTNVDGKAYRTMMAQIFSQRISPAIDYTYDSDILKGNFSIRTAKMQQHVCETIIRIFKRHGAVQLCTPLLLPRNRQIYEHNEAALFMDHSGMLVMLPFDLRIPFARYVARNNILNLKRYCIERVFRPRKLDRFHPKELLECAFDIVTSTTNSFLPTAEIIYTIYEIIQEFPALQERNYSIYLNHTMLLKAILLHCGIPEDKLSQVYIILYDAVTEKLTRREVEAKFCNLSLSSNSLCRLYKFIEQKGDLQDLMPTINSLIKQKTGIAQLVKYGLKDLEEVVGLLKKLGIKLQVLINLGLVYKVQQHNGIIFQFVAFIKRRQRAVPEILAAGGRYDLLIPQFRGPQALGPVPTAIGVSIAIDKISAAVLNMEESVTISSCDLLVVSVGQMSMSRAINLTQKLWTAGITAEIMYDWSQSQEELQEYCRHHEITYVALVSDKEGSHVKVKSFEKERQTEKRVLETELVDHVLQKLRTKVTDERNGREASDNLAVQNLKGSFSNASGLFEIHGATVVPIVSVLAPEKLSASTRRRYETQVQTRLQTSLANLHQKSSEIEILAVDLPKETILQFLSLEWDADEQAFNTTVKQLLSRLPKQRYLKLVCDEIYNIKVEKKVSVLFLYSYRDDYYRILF

Like-named read-outs stand apart in the source and are kept apart here.

As to `CNC(=O)[C@]1(C)CC[C@@H](Nc2ncc3c(Br)nn(-c4ccc5c(c4)OCC(=O)N5C)c3n2)C1`, the IC50 was 25 to 200 nM.
Consider `CNC(=O)[C@]1(C)CC[C@@H](Nc2ncc3c(Br)nn(-c4ccc5c(c4)CCC(=O)N5C)c3n2)C1`, for which the IC50 (tested form: TFA) was 25 to 200 nM.

(Values after patent publication US11046699B2, “Pyrazolo-pyrimidin-amino-cycloalkyl compounds and their therapeutic uses” (RAPT THERAPEUTICS, INC., priority 2018, dated 2021).)
